Results reported in patent US10052318B2, “Glutamate agents in the treatment of mental disorders” (YALE UNIVERSITY, priority 2005, dated 2018).
Read-outs that look alike come from different tables or passages of the source.

Test system: patients with serotonin reuptake inhibitor-resistant obsessive-compulsive disorder

Structure (SMILES): Nc1nc2ccc(OC(F)(F)F)cc2s1 [Riluzole, riluzole]
- HAM-A scores over time (F1,11.2=7.9, p=0.017): improved significantly
- Clinician administered CGI/GI scores over time (F1,16.2=20.99, p=0.0003): significantly improved
- effect size in the comparisons of Y-BOCS between baseline and week 4 (above-described riluzole study (Coric et al. 2005)): 0.86
- Mean AST (baseline): 19.1 (±5.7)
- Mean CGI/GI (baseline): 4 (±0)
- Percent reduction in baseline Y-BOCS scores at end of study in responders (five responders): 38-76%
- Mean HAM-A at baseline (group of 13 patients, baseline): 18.2 (±6.2)
- Mean HAM-D at baseline (group of 13 patients, baseline): 30 (113.7)
- Mean Y-BOCS at baseline (group of 13 patients, baseline): 30.7 (±6.6)
- Mean HAM-D at end of study (group of 13 patients, end of study): 19.7 (±6.0)
- Mean Y-BOCS at end of study (group of 13 patients, end of study (6-12 weeks)): 17.7 (±8.6)
- increase in ALT in one patient (one patient, asymptomatic): nine-fold increase
- repeat ALT in that patient (same patient, repeat test, normalized to within two times the upper limits of normal by week three): four-fold increase
- patients with >35% reduction in Y-BOCS scores (seven of thirteen patients): 54%
- reductions in baseline HAM-D scores by the end of the study (six out of thirteen patients with clinically significant improvement): 36-83%
- Mean CGI/GI (week 6): 3.2 (±0.6)
- Mean CGI/GI (week 9): 2.66 (±0.5)
- Mean CGI/GI (week 12): 2.33 (±1)
